Measurements taken from ChEMBL document CHEMBL1125665, “Quaternary salts of 2-[(hydroxyimino)methyl]imidazole. 5. Structure-activity relationships for side-chain nitro-, sulfone-, amino-, and aminosulfonyl-substituted analogues for therapy against anticholinesterase intoxication” (1991).

How the values were obtained:
[1] = target: T1, Acetylcholinesterase (Mus musculus) (UniProt P21836); experiment: antidotal activity measured in mice exposed to soman; activity expressed as the no. of survivors at 24 hr out of population of 10 mice exposed intramuscularly at the dose 1/4 of 2LD50 of the compound
T1 sequence (whole entry): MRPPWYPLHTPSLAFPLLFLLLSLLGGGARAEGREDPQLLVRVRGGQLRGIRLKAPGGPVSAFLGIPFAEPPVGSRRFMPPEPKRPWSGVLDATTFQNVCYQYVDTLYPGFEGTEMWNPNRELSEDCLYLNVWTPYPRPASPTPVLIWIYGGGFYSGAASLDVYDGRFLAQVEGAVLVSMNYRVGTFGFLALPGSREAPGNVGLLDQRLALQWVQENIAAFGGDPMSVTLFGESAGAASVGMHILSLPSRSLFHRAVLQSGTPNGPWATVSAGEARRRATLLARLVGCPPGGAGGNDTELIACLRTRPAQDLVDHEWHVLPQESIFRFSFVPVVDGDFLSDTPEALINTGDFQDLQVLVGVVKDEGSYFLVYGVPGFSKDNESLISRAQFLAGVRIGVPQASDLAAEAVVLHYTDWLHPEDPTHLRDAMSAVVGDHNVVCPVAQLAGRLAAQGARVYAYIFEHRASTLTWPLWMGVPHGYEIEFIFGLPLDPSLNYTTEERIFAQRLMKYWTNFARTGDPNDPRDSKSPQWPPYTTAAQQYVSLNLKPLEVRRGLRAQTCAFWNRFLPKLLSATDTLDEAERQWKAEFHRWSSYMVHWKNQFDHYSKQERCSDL

[2] = target: T1, Acetylcholinesterase (Mus musculus); experiment: Antidotal activity measured in mice exposed to tabun; activity expressed as the no. of survivors at 24 hr out of population of 10 mice each exposed intramuscularly at the dose 1/16 of 2LD50 of the compound
[3] = target: T1, Acetylcholinesterase (Mus musculus); experiment: Antidotal activity measured in mice exposed to soman; activity expressed as the no. of survivors at 24 hr out of population of 10 mice exposed intramuscularly at a dose 1/16 of 2LD50 of the compound

SMILES | No. of survivors [1] | No. of survivors [2] | No. of survivors [3]
C[n+]1ccn(CCNS(=O)(=O)c2ccccc2)c1/C=N/O | 7 | 10 | 10
C[n+]1ccn(CCCNS(=O)(=O)C(F)(F)F)c1/C=N/O | 0 | 0 | 0
C[n+]1ccn(CCNS(=O)(=O)C(F)(F)F)c1/C=N/O | 7 | 0 | 3
CN(CCn1cc[n+](C)c1/C=N/O)S(=O)(=O)c1ccccc1 | 8 | 3 | 10
C[n+]1ccn(COCCC[N+](=O)[O-])c1/C=N/O | 10 | – | 7
C#CCCOCn1ccnc1/C=N/O | 1 | – | 0
CCC[n+]1ccn(COCCS(C)(=O)=O)c1/C=N/O | 9 | – | 0
CC[n+]1ccn(CCCS(C)(=O)=O)c1/C=N/O | 10 | – | 4
Cc1n(CCCN(C)S(=O)(=O)C(F)(F)F)cc[n+]1C | 5 | 0 | 4
CN(CCn1cc[n+](C)c1/C=N/O)S(C)(=O)=O | 8 | 7 | 10
C[n+]1ccn(CCCCS(C)(=O)=O)c1/C=N/O | 8 | 5 | 1
CC[n+]1ccn(CCN(C)C)c1/C=N/O | 1 | – | 0
CC[n+]1ccn(COC(C)(C)C[N+](=O)[O-])c1/C=N/O | 4 | – | 0
C[n+]1ccn(COCCS(C)(=O)=O)c1/C=N/O | 6 | 1 | 9
C[n+]1ccn(COC2CCCC[C@H]2S(C)(=O)=O)c1/C=N/O (some centres undefined) | 1 | 0 | 0
C[n+]1ccn(CCCCCNS(=O)(=O)C(F)(F)F)c1/C=N/O | 0 | 1 | 0
CCN(CCCn1cc[n+](C)c1/C=N/O)S(C)(=O)=O | 5 | – | 1
CCC[n+]1ccn(CCN(C)C)c1/C=N/O | 0 | – | 0
CC(OCn1cc[n+](C)c1/C=N/O)C(C)(C)[N+](=O)[O-] (centres undefined) | 8 | 7 | 5
CC(Cn1cc[n+](C)c1/C=N/O)[N+](=O)[O-] (centres undefined) | 4 | – | 0

SMILES | No. of survivors [1] | No. of survivors [2] | No. of survivors [3]
C[n+]1ccn(CC[N+](C)(C)C)c1/C=N/O | 2 | – | 0
CCN(CCCn1cc[n+](C)c1/C=N/O)S(=O)(=O)c1ccccc1 | 1 | 6 | 0
CN(C)CCCn1cc[n+](C)c1/C=N/O | 8 | – | 0
C[n+]1ccn(CCN2CCCCC2)c1/C=N/O | 7 | 0 | 1
CC(CCC[N+](=O)[O-])OCn1cc[n+](C)c1/C=N/O (centres undefined) | 0 | 0 | 0
CC(CCn1cc[n+](C)c1/C=N/O)C(C)(C)[N+](=O)[O-] (centres undefined) | 8 | – | 3
CCC(Cn1cc[n+](C)c1/C=N/O)NS(=O)(=O)C(F)(F)F (centres undefined) | 5 | – | 0
CCCN(CCn1cc[n+](C)c1/C=N/O)S(=O)(=O)c1ccccc1 | 2 | 8 | 9
CC[n+]1ccn(COCC(C)(C)[N+](=O)[O-])c1/C=N/O | 8 | – | 6
C[n+]1ccn(CCN(Cc2ccccc2)S(=O)(=O)c2ccccc2)c1/C=N/O | 1 | 0 | 5
CC[n+]1ccn(COCCS(=O)(=O)CC)c1/C=N/O | 9 | – | 4
CN(CCCn1cc[n+](C)c1/C=N/O)S(C)(=O)=O | 8 | – | 9
CN(C)CCn1cc[n+](C)c1/C=N/O | 10 | – | 0
C[n+]1ccn(COC(C)(C)C[N+](=O)[O-])c1/C=N/O | 8 | 0 | 5
C[n+]1ccn(COCC(C)(C)[N+](=O)[O-])c1/C=N/O | 6 | 3 | 8
CN(CCCn1cc[n+](C)c1/C=N/O)S(=O)(=O)C(F)(F)F | 8 | 3 | 10
CC[n+]1ccn(COC(C)(C)C(C)[N+](=O)[O-])c1/C=N/O (centres undefined) | 10 | – | 8
C[n+]1ccn(CCC[n+]2ccc(C(N)=O)cc2)c1/C=N/O | 10 | – | 7
CCN(CC)CCCn1cc[n+](C)c1/C=N/O | – | – | 0
C[n+]1ccn(CCCNS(=O)(=O)c2ccccc2)c1/C=N/O | 4 | – | 0

SMILES | No. of survivors [1] | No. of survivors [2] | No. of survivors [3]
CN(CCn1cc[n+](C)c1/C=N/O)S(=O)(=O)C(F)(F)F | 6 | – | 8
CN(CCOCn1cc[n+](C)c1/C=N/O)S(=O)(=O)C(F)(F)F | 5 | – | 6
CCN(CCn1cc[n+](C)c1/C=N/O)S(=O)(=O)c1ccccc1 | 1 | – | 7
CC[n+]1ccn(COC(C)C(C)[N+](=O)[O-])c1/C=N/O (centres undefined) | 8 | – | 1
C[n+]1ccn(CCCC(C)(C)[N+](=O)[O-])c1/C=N/O | 9 | – | 1
CC[n+]1ccn(COCCS(C)(=O)=O)c1/C=N/O | 9 | – | 2
CC(Cn1cc[n+](C)c1/C=N/O)NS(=O)(=O)C(F)(F)F (centres undefined) | 5 | – | 5
CC[n+]1ccn(CCCC(C)(C)[N+](=O)[O-])c1/C=N/O | 6 | – | 7
C[n+]1ccn(CCN2CCOCC2)c1/C=N/O | 3 | – | 0
CC(OCn1cc[n+](C)c1C(N)=O)C(C)(C)[N+](=O)[O-] (centres undefined) | 9 | – | 4
CC([N+](=O)[O-])C(C)(C)OCn1cc[n+](C)c1/C=N/O (centres undefined) | 9 | – | 10
CC[N+](C)(CC)CCn1cc[n+](C)c1/C=N/O | 0 | – | 0
CC(COCn1cc[n+](C)c1/C=N/O)[N+](=O)[O-] (centres undefined) | 6 | – | 0
CN(CCCn1cc[n+](C)c1/C=N/O)S(=O)(=O)c1ccccc1 | 2 | – | 0
C[n+]1ccn(CCOCCS(C)(=O)=O)c1/C=N/O | 6 | – | 0
CCN(CCn1cc[n+](C)c1/C=N/O)S(C)(=O)=O | 7 | – | 9
CC(OCn1cc[n+](C)c1/C=N/O)C(C)[N+](=O)[O-] (centres undefined) | 9 | – | 9
CC(C[N+](=O)[O-])OCn1cc[n+](C)c1/C=N/O (centres undefined) | 9 | – | 2
